Assay results taken from patent publication US20230348369A1 (Cytokinetics, Inc., priority 2020, published 2023).

Protein sequences, listed by entry. Tags and fused reporters are not part of them. Lines headed by an entry give the natural chain unless they say otherwise; changes in a name come on top.
UniProt P43490: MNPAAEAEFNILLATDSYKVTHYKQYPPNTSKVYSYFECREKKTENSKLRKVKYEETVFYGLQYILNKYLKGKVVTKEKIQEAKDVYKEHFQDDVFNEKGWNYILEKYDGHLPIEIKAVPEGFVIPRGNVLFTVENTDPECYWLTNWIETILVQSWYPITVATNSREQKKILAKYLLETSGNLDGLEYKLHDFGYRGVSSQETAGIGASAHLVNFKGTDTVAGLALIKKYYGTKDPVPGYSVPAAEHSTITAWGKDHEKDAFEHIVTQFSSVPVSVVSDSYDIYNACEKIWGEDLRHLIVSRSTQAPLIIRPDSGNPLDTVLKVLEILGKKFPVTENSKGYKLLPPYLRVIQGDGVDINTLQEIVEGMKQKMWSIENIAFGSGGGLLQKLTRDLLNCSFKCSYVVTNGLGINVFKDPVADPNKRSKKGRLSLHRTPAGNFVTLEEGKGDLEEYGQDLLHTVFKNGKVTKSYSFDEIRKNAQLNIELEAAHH

molecular target: human NAMPT (Homo sapiens, UniProt P43490); experiment: Human recombinant enzyme assay (NMN fluorescence biochemical assay, activation of NAMPT); settings: Table A, NMN formation, 60 min
Description: Compounds described herein were assayed for their ability to stimulate the synthesis of nicotinamide mononucleotide (NMN) by the enzyme NAMPT. The human recombinant enzyme assay measures the activation of the enzyme activity by compounds using recombinant enzyme and substrates in a buffered cell-free system. The assay conditions closely mimic cellular environments. Dose responses were measured using an assay to detect the formation of nicotinamide mono-nucleotide. All experiments were performed in the 384-well format. Generally, 0.5 μL of DMSO containing varying concentrations of the test compound was mixed with 10 μL of the enzyme reagent solution. Enzyme reactions were initiated with the addition of 10 μL of a solution containing the substrates. The final assay conditions were as follows: 6 nM human NAMPT, 2.5 mM ATP, 20 μM PRPP and 150 μM nicotinamide in 50 mM HEPES, pH 7.2, 1 mM DTT, 1 mM CHAPS 50 mM NaCl, 100 mM MgCl2. Following an incubation of 60 min at ambient temperature, 10 μL of 20% acetophenone in DMSO was added, followed by 10 μL of 2 M KOH and 40 μL of formic acid. The plates were read for fluorescence (Excitation/Emission=355 nm/460 nm) using an EnVision plate reader after 40 mins of incubation at ambient temperature. The potency measurements for compounds, are quantified and represented as AC1.4 (the concentration of compounds that generates 40% higher activity over basal) and EC50 (concentration of the compound that gives half-maximal activation).

Row | EC50 [µM] | Structure (SMILES)
1 | 28.5 | NC(=O)c1ccc(CNC(=O)NC2CC(c3ccccc3)C2)cc1 (stereo not drawn) [Compound 4, 4-((3-(3-phenylcyclobutyl)ureido)methyl)benzamide]
2 | 10.8 | O=C(NCc1ccc(Cl)cc1)N[C@H]1C[C@]2(CCN(C(=O)N3CCC(N4CCCCC4)CC3)C2)C1 [Compound 354, 1-((2r,4s)-6-([1,4′-bipiperidine]-1′-carbonyl)-6-azaspiro[3.4]octan-2-yl)-3-(4-chlorobenzyl)urea]

Row | Structure (SMILES) | EC50 [µM]
3 | COc1ccc(CNC(=O)NC2CC3(C2)CC(c2nc(-c4ccccc4)co2)C3)cc1 (stereo not drawn) [Compound 326, 1-(4-methoxybenzyl)-3-(6-(4-phenyloxazol-2-yl)spiro[3.3]heptan-2-yl)urea] | 2.9
